Protein sequences, listed by entry. Tags and fused reporters are not part of them.
UniProt P28223, whole entry: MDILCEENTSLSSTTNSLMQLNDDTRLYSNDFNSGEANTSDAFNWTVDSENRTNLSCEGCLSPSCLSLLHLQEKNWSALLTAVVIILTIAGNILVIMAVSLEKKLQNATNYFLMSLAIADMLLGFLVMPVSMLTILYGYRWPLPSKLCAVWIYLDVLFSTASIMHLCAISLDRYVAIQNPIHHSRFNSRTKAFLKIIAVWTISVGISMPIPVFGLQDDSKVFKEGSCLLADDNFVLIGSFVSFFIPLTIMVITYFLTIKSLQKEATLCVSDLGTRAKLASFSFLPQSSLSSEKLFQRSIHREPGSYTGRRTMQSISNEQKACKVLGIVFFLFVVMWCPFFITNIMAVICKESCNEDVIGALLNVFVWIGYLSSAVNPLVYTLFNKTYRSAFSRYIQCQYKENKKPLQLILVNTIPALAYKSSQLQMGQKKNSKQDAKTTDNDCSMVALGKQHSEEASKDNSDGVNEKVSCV

According to patent US8569267B2, “Tetracyclic tetrahydrofuran derivatives containing cyclic amine side chain” (Janssen Pharmaceutica, NV, priority 2005, dated 2013):

Molecular target: T1, human cloned 5-HT2A receptor, expressed in L929 cells (Homo sapiens, UniProt P28223)
T1 construct: expressed in transfected cells; host or cells: L929 cells
Assay: In vitro binding affinity for 5-HT2A receptor ([125I]R91150 radioligand binding)
Conditions: 5-HT2A pIC50, human cloned 5-HT2A receptor in L929 cells
Protocol: In Vitro Binding Affinity for 5-HT2A and 5-HT2C Receptors
The interaction of the compounds of Formula (I) with 5-HT2A and 5-HT2C receptors was assessed in in vitro radioligand binding experiments. […] During the incubation, the radioligands bind to the receptor. When equilibrium of binding is reached, the receptor bound radioactivity is separated from the non-bound radioactivity, and the receptor bound activity is counted. The interaction of the test compounds with the receptors is assessed in competition binding experiments. Various concentrations of the test compound are added to the incubation mixture containing the tissue preparation and the radioligand. Binding of the radioligand will be inhibited by the test compound in proportion to its binding affinity and its concentration. The affinities of the compounds for the 5-HT2 receptors were measured by means of radioligand binding studies conducted with: (a) human cloned 5-HT2A receptor, expressed in L929 cells using [^125I]R91150 as radioligand and (b) human cloned 5-HT2C receptor, expressed in CHO cells using [^3H]mesulergine as radioligand.
The results are given in Table 8 below in terms of pIC50 values for the respective compounds.

| SMILES | IC50 [nM] |
| --- | --- |
| O=C(NC1CCN(CC2CC3c4ccccc4Cc4ccc(F)cc4C3O2)CC1)c1ccccc1Br (stereo not drawn) [Compound 226] | 2 |
| O=C(NCc1cccc(C(F)(F)F)c1)C1CCN(CC2CC3c4ccccc4Cc4ccc(F)cc4C3O2)CC1 (stereo not drawn) [Compound 182] | 4.27 |
| Cn1cccc1C(=O)NC1CCN(CC2CC3c4ccccc4Cc4ccc(F)cc4C3O2)CC1 (stereo not drawn) [Compound 221] | 1.7 |
| CC(C)c1ccccc1NC(=O)C1CCN(CC2CC3c4ccccc4Cc4ccc(F)cc4C3O2)CC1 (stereo not drawn) [Compound 185] | 3.63 |
| Cc1cccc(C(=O)NC2CCN(CC3CC4c5ccccc5Cc5ccc(F)cc5C4O3)CC2)c1 (stereo not drawn) [Compound 225] | 3.09 |
| CC(=O)OC1CCN(C[C@H]2C[C@@H]3c4ccccc4Cc4ccc(F)cc4[C@@H]3O2)CC1 [Compound 166] | 0.871 |
| O=C(NC1CCN(CC2CC3c4ccccc4Cc4ccc(F)cc4C3O2)CC1)NC1CC1c1ccccc1 (mixture of isomers) [Compound 246] | 1.29 |
| O=C(Nc1ccccc1)NC1CCN(CC2CC3c4ccccc4Cc4ccc(F)cc4C3O2)CC1 (stereo not drawn) [Compound 247] | 0.871 |
| O=C(NC1CCN(CC2CC3c4ccccc4Cc4ccc(F)cc4C3O2)CC1)c1ccccc1F (stereo not drawn) [Compound 232] | 2.51 |
| O=C(O)C1CCN(C[C@H]2C[C@@H]3c4ccccc4Cc4ccc(F)cc4[C@@H]3O2)CC1 [Compound 157] | 12.3 |
| OCCC1CCCN(CC2CC3c4ccccc4Cc4ccc(F)cc4C3O2)C1 (mixture of isomers) [Compound 152] | 1.86 |
| CC(C)(C)OC(=O)N1CCN(C(=O)C2CCN(CC3CC4c5ccccc5Cc5ccc(F)cc5C4O3)CC2)CC1 (stereo not drawn) [Compound 206] | 2.45 |
| O=C(NC1CCN(CC2CC3c4ccccc4Cc4ccc(F)cc4C3O2)CC1)c1ccccc1Cl (stereo not drawn) [Compound 227] | 2.34 |
| N#CC1(c2ccccc2)CCN(C(=O)C2CCN(CC3CC4c5ccccc5Cc5ccc(F)cc5C4O3)CC2)CC1 (stereo not drawn) [Compound 208] | 4.07 |
| OC1CCCN(CC2CC3c4ccccc4Cc4ccc(F)cc4C3O2)C1 (single isomer, unassigned) [Compound 142] | 0.575 |
| O=C(CSc1ccccc1)NC1CCN(CC2CC3c4ccccc4Cc4ccc(F)cc4C3O2)CC1 (stereo not drawn) [Compound 241] | 5.13 |
| O=C(Nc1ccccc1F)C1CCN(CC2CC3c4ccccc4Cc4ccc(F)cc4C3O2)CC1 (stereo not drawn) [Compound 189] | < 10 |
| OCC1CCN(CC2CC3c4ccccc4Cc4ccc(F)cc4C3O2)CC1 (stereo not drawn) [Compound 151] | 0.912 |
| O=C(NCc1cccc(I)c1)C1CCN(CC2CC3c4ccccc4Cc4ccc(F)cc4C3O2)CC1 (stereo not drawn) [Compound 196] | 3.63 |
| O=C(NCc1cccs1)C1CCN(CC2CC3c4ccccc4Cc4ccc(F)cc4C3O2)CC1 (stereo not drawn) [Compound 195] | 0.813 |
| CCOC(=O)C1CCCN(C[C@H]2C[C@@H]3c4ccccc4Cc4ccc(F)cc4[C@@H]3O2)C1 (stereo partly drawn) [Compound 160] | 5.01 |
| O=C(NCc1ccccn1)C1CCN(CC2CC3c4ccccc4Cc4ccc(F)cc4C3O2)CC1 (stereo not drawn) [Compound 197] | 0.417 |
| OC1CCCN(CC2CC3c4ccccc4Cc4ccc(F)cc4C3O2)C1 (single isomer, unassigned) [Compound 143] | 1.35 |
| O=C(C1CCN(CC2CC3c4ccccc4Cc4ccc(F)cc4C3O2)CC1)N1CC=C(c2ccccc2)CC1 (stereo not drawn) [Compound 207] | 5.5 |
| O=C(NCc1ccco1)C1CCN(CC2CC3c4ccccc4Cc4ccc(F)cc4C3O2)CC1 (stereo not drawn) [Compound 194] | 0.468 |
| CCOC(=O)C1CCN(C[C@H]2C[C@@H]3c4ccccc4Cc4ccc(F)cc4[C@@H]3O2)CC1 [Compound 162] | 1.12 |
| OC1CCN(C[C@H]2C[C@@H]3c4ccccc4Cc4ccc(F)cc4[C@@H]3O2)CC1 [Compound 144, [2R-(2α, 3aα, 12bβ)]1-(11-fluoro-3,3a,8,12b-tetrahydro-2H-1-oxa-dibenzo[e,h]azulen-2-ylmethyl)-piperidin-4-ol.oxalate (1:1)] | 0.676 |
| OC1CCCN(CC2CC3c4ccccc4Cc4ccc(F)cc4C3O2)C1 (racemic) [Compound 141] | 1.02 |
| CCOC(=O)CC1CCN(CC2CC3c4ccccc4Cc4ccc(F)cc4C3O2)CC1 (stereo not drawn) [Compound 164, [2R-(2α, 3aα, 12bβ)][1-(11-fluoro-3,3a,8,12b-tetrahydro-2H-1-oxa-dibenzo[e,h]-azulen-2-ylmethyl)-piperidin-4-yl]-acetic acid ethyl ester.oxalate (1:1)] | 2.34 |
| O=C(Cc1cccs1)NC1CCN(CC2CC3c4ccccc4Cc4ccc(F)cc4C3O2)CC1 (stereo not drawn) [Compound 240] | 3.16 |
